Drawing on ChEMBL document CHEMBL4715770, “Inhibition of Low Molecular Weight Protein Tyrosine Phosphatase by an Induced-Fit Mechanism” (J Med Chem, 2016), this text covers Ratio IC50 for 2 compounds.

Bounds are passed on as bounds.

The species named for assay [1] is Homo sapiens. The experiment in a line: Selectivity ratio of IC50 for inhibition of His-tagged PP5 (unknown origin) to IC50 for inhibition of His-tagged LMW-PTP isoform A (unknown origin).
The species entered for assay [2] is Homo sapiens. The experiment in a line: Selectivity ratio of IC50 for inhibition of His-tagged LAR (unknown origin) to IC50 for inhibition of His-tagged LMW-PTP isoform A (unknown origin).
The species named for assay [3] is Homo sapiens. Kind of assay: Selectivity ratio of IC50 for inhibition of His-tagged PTP-PEST (unknown origin) to IC50 for inhibition of His-tagged LMW-PTP isoform A (unknown origin).
For assay [4], the species on record is Homo sapiens. The experiment in a line: Selectivity ratio of IC50 for inhibition of His-tagged LYP (unknown origin) to IC50 for inhibition of His-tagged LMW-PTP isoform A (unknown origin).
For assay [5], the species on record is Homo sapiens. The experiment in a line: Selectivity ratio of IC50 for inhibition of His-tagged PTP-H1 (unknown origin) to IC50 for inhibition of His-tagged LMW-PTP isoform A (unknown origin).
Assay [6] is filed under the species Homo sapiens. Kind of assay: Selectivity ratio of IC50 for inhibition of His-tagged MKP3 (unknown origin) to IC50 for inhibition of His-tagged LMW-PTP isoform A (unknown origin).
For assay [7], the species on record is Homo sapiens. Kind of assay: Selectivity ratio of IC50 for inhibition of His-tagged SSu72 (unknown origin) to IC50 for inhibition of His-tagged LMW-PTP isoform A (unknown origin).
Assay [8] is filed under the species Homo sapiens. The experiment in a line: Selectivity ratio of IC50 for inhibition of His-tagged CD45 (unknown origin) to IC50 for inhibition of His-tagged LMW-PTP isoform A (unknown origin).
For assay [9], the species on record is Homo sapiens. Kind of assay: Selectivity ratio of IC50 for inhibition of His-tagged HePTP (unknown origin) to IC50 for inhibition of His-tagged LMW-PTP isoform A (unknown origin).
The species entered for assay [10] is Homo sapiens. The experiment in a line: Selectivity ratio of IC50 for inhibition of His-tagged PTPepsilon (unknown origin) to IC50 for inhibition of His-tagged LMW-PTP isoform A (unknown origin).
The species entered for assay [11] is Homo sapiens. The experiment in a line: Selectivity ratio of IC50 for inhibition of His-tagged TC-PTP (unknown origin) to IC50 for inhibition of His-tagged LMW-PTP isoform A (unknown origin).
The species entered for assay [12] is Homo sapiens. Kind of assay: Selectivity ratio of IC50 for inhibition of His-tagged PTPbeta (unknown origin) to IC50 for inhibition of His-tagged LMW-PTP isoform A (unknown origin).
Assay [13] is filed under the species Homo sapiens. The experiment in a line: Selectivity ratio of IC50 for inhibition of His-tagged PTPsigma (unknown origin) to IC50 for inhibition of His-tagged LMW-PTP isoform A (unknown origin).
The species named for assay [14] is Homo sapiens. The experiment in a line: Selectivity ratio of IC50 for inhibition of His-tagged FAP1 (unknown origin) to IC50 for inhibition of His-tagged LMW-PTP isoform A (unknown origin).
The species entered for assay [15] is Homo sapiens. Kind of assay: Selectivity ratio of IC50 for inhibition of His-tagged PTPmu (unknown origin) to IC50 for inhibition of His-tagged LMW-PTP isoform A (unknown origin).
The species entered for assay [16] is Homo sapiens. The experiment in a line: Selectivity ratio of IC50 for inhibition of His-tagged VHZ (unknown origin) to IC50 for inhibition of His-tagged LMW-PTP isoform A (unknown origin).
For assay [17], the species on record is Homo sapiens. The experiment in a line: Selectivity ratio of IC50 for inhibition of His-tagged PTPgamma (unknown origin) to IC50 for inhibition of His-tagged LMW-PTP isoform A (unknown origin).
For assay [18], the species on record is Homo sapiens. Kind of assay: Selectivity ratio of IC50 for inhibition of His-tagged PTP-MEG2 (unknown origin) to IC50 for inhibition of His-tagged LMW-PTP isoform A (unknown origin).
Assay [19] is filed under the species Homo sapiens. The experiment in a line: Selectivity ratio of IC50 for inhibition of His-tagged VHR (unknown origin) to IC50 for inhibition of His-tagged LMW-PTP isoform A (unknown origin).
Assay [20] is filed under the species Homo sapiens. The experiment in a line: Selectivity ratio of IC50 for inhibition of His-tagged SHP2 (unknown origin) to IC50 for inhibition of His-tagged LMW-PTP isoform A (unknown origin).
The species named for assay [21] is Homo sapiens. The experiment in a line: Selectivity ratio of IC50 for inhibition of His-tagged PTPalpha (unknown origin) to IC50 for inhibition of His-tagged LMW-PTP isoform A (unknown origin).
For assay [22], the species on record is Homo sapiens. The experiment in a line: Selectivity ratio of IC50 for inhibition of His-tagged PTP1B (unknown origin) to IC50 for inhibition of His-tagged LMW-PTP isoform A (unknown origin).
For assay [23], the species on record is Homo sapiens. Kind of assay: Selectivity ratio of IC50 for inhibition of His-tagged SHP1 (unknown origin) to IC50 for inhibition of His-tagged LMW-PTP isoform A (unknown origin).
The species entered for assay [24] is Homo sapiens. Kind of assay: Selectivity ratio of IC50 for inhibition of His-tagged CDC14A (unknown origin) to IC50 for inhibition of His-tagged LMW-PTP isoform A (unknown origin).

On to `O=C(Nc1nc2ccc([N+](=O)[O-])cc2s1)C(c1ccccc1)S(=O)(=O)O` (stereo not drawn), for which the Ratio IC50 in [1], in assay [2], in assay [3], in assay [4], in assay [5] and in assay [6] was above 50 in each case. Besides, the Ratio IC50 in assay [7], in assay [8], in assay [9], in assay [10], in [11] and in assay [12] was above 50 in each case. Moreover, the Ratio IC50 in assay [13], in [14], in assay [15], in [16], in assay [17] and in assay [18] was above 50 throughout. The Ratio IC50 in assay [19], in assay [20], in [21], in assay [22], in assay [23] and in assay [24] was above 50 each time.
With `O=C(Nc1ccc2nc(C(F)(F)F)[nH]c2c1)C(c1ccccc1)S(=O)(=O)O` (stereo not drawn), the Ratio IC50 in assay [1], in assay [2], in [3], in assay [4], in assay [5] and in assay [6] was above 35 each time. Besides, the Ratio IC50 in assay [7], in assay [8], in assay [9], in [10], in assay [11] and in [12] was above 35 in each case. Besides, the Ratio IC50 in assay [13], in assay [14], in assay [15], in assay [16], in assay [17] and in [18] was above 35 each time. Further, the Ratio IC50 in assay [19], in assay [20], in assay [21], in [22], in [23] and in [24] was above 35 in each case.
